{"source": "ChEMBL document CHEMBL4321839", "about": "“Structure-activity relationships (SAR) of triazine derivatives: Promising antimicrobial agents” (Eur J Med Chem, 2020)", "assay_type_in_all_cases": "functional", "key": {"Staphylococcus aureus [1]": {"test_system": "Staphylococcus aureus", "assay": "Antimicrobial activity against methicillin-resistant Staphylococcus aureus CCARM 3090 assessed as reduction in microbial growth incubated for 18 to 24 hrs by two-fold serial dilution method"}, "Staphylococcus aureus [2]": {"test_system": "Staphylococcus aureus", "assay": "Antimicrobial activity against methicillin-resistant Staphylococcus aureus CCARM 3089 assessed as reduction in microbial growth incubated for 18 to 24 hrs by two-fold serial dilution method"}, "Pseudomonas aeruginosa [3]": {"test_system": "Pseudomonas aeruginosa", "assay": "Antimicrobial activity against multi drug-resistant Pseudomonas aeruginosa CCARM 2095 assessed as reduction in microbial growth incubated for 18 to 24 hrs by two-fold serial dilution method"}, "Pseudomonas aeruginosa [4]": {"test_system": "Pseudomonas aeruginosa", "assay": "Antimicrobial activity against multi drug-resistant Pseudomonas aeruginosa CCARM 2109 assessed as reduction in microbial growth incubated for 18 to 24 hrs by two-fold serial dilution method"}, "Staphylococcus aureus [5]": {"test_system": "Staphylococcus aureus", "assay": "Antimicrobial activity against methicillin-resistant Staphylococcus aureus CCARM 3095 assessed as reduction in microbial growth incubated for 18 to 24 hrs by two-fold serial dilution method"}}}
{"smiles": "CC[C@H](C)[C@H](NC(=O)CN)C(=O)NCC(=O)N[C@@H](C)C(=O)N[C@H](C(=O)N[C@@H](CC(C)C)C(=O)N[C@@H](CCCCN)C(=O)N[C@H](C(=O)N[C@@H](CC(C)C)C(=O)N[C@H](C(=O)N[C@H](C(=O)NCC(=O)N[C@@H](CC(C)C)C(=O)N1CCC[C@H]1C(=O)N[C@@H](C)C(=O)N[C@@H](CC(C)C)C(=O)N[C@H](C(=O)N[C@@H](CO)C(=O)N[C@@H](Cc1c[nH]c2ccccc12)C(=O)N[C@H](C(=O)N[C@@H](CCCCN)C(=O)N[C@@H](CCCNC(=N)N)C(=O)N[C@@H](CCCCN)C(=O)N[C@@H](CCCNC(=N)N)C(=O)N[C@@H](CCC(N)=O)C(=O)N[C@@H](CCC(N)=O)C(N)=O)[C@@H](C)CC)[C@@H](C)CC)[C@@H](C)O)[C@@H](C)O)C(C)C)C(C)C", "note": "[MELITTIN]", "values": [{"measurement": "MIC", "setting": "Staphylococcus aureus [1]", "value": 4, "unit": "µM"}, {"measurement": "MIC", "setting": "Staphylococcus aureus [2]", "value": 2, "unit": "µM"}, {"measurement": "MIC", "setting": "Pseudomonas aeruginosa [3]", "value": 2, "unit": "µM"}, {"measurement": "MIC", "setting": "Pseudomonas aeruginosa [4]", "value": 4, "unit": "µM"}, {"measurement": "MIC", "setting": "Staphylococcus aureus [5]", "value": 2, "unit": "µM"}]}
